Assay results reported in patent publication EP0496162A2, “Peptide inhibitors of RAS-GAP interaction” (MERCK & CO. INC., priority 1990, dated 1992).

Format: physicochemical
Description: Ras peptides were dissolved in either 100% dimethyl formamide (DMF, American Burdick and Jackson) or 100% dimethyl sulfoxide (DMSO, Fluka UV-spectroscopy grade) at a calculated peptide concentration of 1-4 mM. Following 1 minute in a Sonicor SC-200 bath sonicator at room temperature, the peptide solutions were vortexed, and then centrifuged for 5 minutes at room temperature in an Eppendorf microfuge to remove any undissolved material. 20 µL of the cleared peptide solutions were then added to 80 µL of Buffer D in a dilution series covering a range of peptide concentrations from 0.02 µM up to the maximum solubility limit for each peptide. In each dilution, the solvent concentration was maintained at 20%. […] Reactions were initiated upon addition of 5 µL of diluted GAP (10 fmol), and analyzed as described above.
The other portion of the cleared peptide solution was measured spectrophotometrically to determine solubility and concentration of the peptides. Extinction coefficients were determined by measuring the absorbance at 277 nm of 2 peptides whose exact concentrations were quantitated by amino acid analysis. […] In addition, peptide solubility was confirmed by comparing the light scattering at 600 nm for each peptide solution measured before and after centrifugation. […]

For `CC[C@H](C)[C@H](NC(=O)[C@H](CC(C)C)NC(=O)[C@H](CCC(N)=O)NC(=O)[C@@H](NC(=O)[C@@H](NC(=O)[C@H](CC(C)C)NC(=O)[C@H](CCCNC(=N)N)NC(=O)[C@@H](N)CCCNC(=N)N)[C@@H](C)O)[C@@H](C)CC)C(=O)N[C@@H](CCC(N)=O)C(=O)N[C@@H](CC(N)=O)C(=O)N[C@@H](Cc1c[nH]cn1)C(=O)N[C@@H](Cc1ccccc1)C(=O)N[C@H](C(=O)N[C@@H](CC(=O)O)C(=O)N[C@@H](CCC(=O)O)C(=O)N[C@@H](Cc1ccc(O)cc1)C(=O)N[C@@H](CC(=O)O)C(N)=O)C(C)C` [Ras 19-33(1)], the “Maximum Solubility” value was 4 mM.
